Laboratory results published in patent publication US20050282889A1, “Intracorporeal medicaments for photodynamic treatment of disease” (priority 1996, published 2005).

Key:
[1] = Absorbance properties of halogenated xanthenes (λmax, α); assay type: physicochemical
Description: Selected chemical and physical properties (such as chemical constituents at positions X, Y, and Z and functionalities R^1 and R^2, along with molecular weight and photochemical characteristics) of representative halogenated xanthenes are summarized in attached Table 1. Certain general properties of this class of agents are discussed in further detail in U.S. Ser. No. 09/130,041, filed on Aug. 6, 1998, U.S. Ser. No. 09/184,388, filed on Nov. 2, 1998, and U.S. Ser. No. 09/216,787, filed on Dec. 21, 1998, which are herein incorporated by reference in their entirety. […]
Further, as evidenced by the data shown in Table 1 (infra) and in FIG. 2, halogenated xanthenes share common spectroscopic properties, including a high single-photon cross-section extending from approximately 500 nm to 600 nm. […] Such excitation methods provide additional utility in the activation of medicaments formulated from these agents, for example when it is desirable to increase the depth of photoactivation to positions substantially beyond that readily accessible using visible light excitation methods.

[2] = Partition coefficient Kp, n-octanol / phosphate buffered saline; conditions: ratio of equilibrium concentrations, n-octanol vs PBS pH=7.4

With `CCN(CC)CC.CCN(CC)CC.O=C(O)c1c(Cl)c(Cl)c(Cl)c(Cl)c1-c1c2cc(I)c(=O)c(I)c-2oc2c(I)c(O)c(I)cc12` [Rose Bengal Derivative II] the “λmax (nm) EtOH” value [1] was 559 nm.
With `O=C1OC2(c3cc(I)c(O)c(I)c3Oc3c2cc(I)c(O)c3I)c2c(Cl)c(Cl)c(Cl)c(Cl)c21` [Rose Bengal, 4,5,6,7-tetrachloro-2′,4′,5′,7′-Tetraiodofluorescein] the “Kp (partition coefficient)” value [2] was 11.5.
